Legend:
Assay in all cases: Two-electrode voltage-clamp recordings, Xenopus oocytes
Type in all cases: cell-based
GluN1/GluN2A = GluN1/GluN2A (Rattus norvegicus, UniProt P35439+Q00959); conditions: for Glycine activity nH: 100 μM glutamate
GluN1/GluN2B = GluN1/GluN2B (Rattus norvegicus, UniProt P35439+Q00960); conditions: 100 μM glutamate
GluN1/GluN2B F784V = GluN1/GluN2B F784V (Rattus norvegicus, UniProt P35439+Q00960, F784V); conditions: 100 μM glutamate
GluN1/GluN2B L783F+F784V = GluN1/GluN2B L783F+F784V (Rattus norvegicus, UniProt P35439+Q00960, F784V/L783F); conditions: 100 μM glutamate
GluN1/GluN2A V783L = GluN1/GluN2A V783L (Rattus norvegicus, UniProt P35439+Q00959, V783L); conditions: 100 μM glutamate
GluN1/GluN2A G786D = GluN1/GluN2A G786D (Rattus norvegicus, UniProt P35439+Q00959, G786D); conditions: 100 μM glutamate
GluN1/GluN2A E790M = GluN1/GluN2A E790M (Rattus norvegicus, UniProt P35439+Q00959, E790M); conditions: 100 μM glutamate, 0 μM TCN-201
GluN1/GluN2A M788I = GluN1/GluN2A M788I (Rattus norvegicus, UniProt P35439+Q00959, M788I); conditions: 100 μM glutamate, 0 μM TCN-201
GluN1/GluN2A T793R = GluN1/GluN2A T793R (Rattus norvegicus, UniProt P35439+Q00959, T793R); conditions: 100 μM glutamate, 0 μM TCN-201
GluN1/GluN2A V783A = GluN1/GluN2A V783A (Rattus norvegicus, UniProt P35439+Q00959, V783A)
GluN1/GluN2A V783F = GluN1/GluN2A V783F (Rattus norvegicus, UniProt P35439+Q00959, V783F)
GluN1/GluN2A V783W = GluN1/GluN2A V783W (Rattus norvegicus, UniProt P35439+Q00959, V783W); conditions: 100 μM glutamate, 0 μM TCN-201
GluN1/GluN2A V783S = GluN1/GluN2A V783S (Rattus norvegicus, UniProt P35439+Q00959, V783S); conditions: 100 μM glutamate, 0 μM TCN-201
GluN1/GluN2A V783T = GluN1/GluN2A V783T (Rattus norvegicus, UniProt P35439+Q00959, V783T); conditions: 100 μM glutamate, 0 μM TCN-201
GluN1/GluN2A V783H = GluN1/GluN2A V783H (Rattus norvegicus, UniProt P35439+Q00959, V783H); conditions: 100 μM glutamate, 0 μM TCN-201
GluN1/GluN2A V783D = GluN1/GluN2A V783D (Rattus norvegicus, UniProt P35439+Q00959, V783D); conditions: 100 μM glutamate, 0 μM TCN-201
GluN1/GluN2A P527A = GluN1/GluN2A P527A (Rattus norvegicus, UniProt P35439+Q00959, P527A); conditions: 100 μM glutamate, 0 μM TCN-201
GluN1/GluN2A L777A = GluN1/GluN2A L777A (Rattus norvegicus, UniProt P35439+Q00959, L777A); conditions: 100 μM glutamate, 0 μM TCN-201
GluN1/GluN2A L779A = GluN1/GluN2A L779A (Rattus norvegicus, UniProt P35439+Q00959, L779A); conditions: 100 μM glutamate, 0 μM TCN-201
GluN1/GluN2A L780A = GluN1/GluN2A L780A (Rattus norvegicus, UniProt P35439+Q00959, L780A); conditions: 100 μM glutamate, 0 μM TCN-201
GluN1/GluN2A Q781A = GluN1/GluN2A Q781A (Rattus norvegicus, UniProt P35439+Q00959, Q781A); conditions: 100 μM glutamate, 0 μM TCN-201
GluN1/GluN2A G786A = GluN1/GluN2A G786A (Rattus norvegicus, UniProt P35439+Q00959, G786A); conditions: 100 μM glutamate, 0 μM TCN-201
GluN1/GluN2A M788A = GluN1/GluN2A M788A (Rattus norvegicus, UniProt P35439+Q00959, M788A); conditions: 100 μM glutamate, 0 μM TCN-201
GluN1/GluN2A E789A = GluN1/GluN2A E789A (Rattus norvegicus, UniProt P35439+Q00959, E789A); conditions: 100 μM glutamate, 0 μM TCN-201
[1] = biological target: GluN1 I519A co-expressed with GluN2A (Rattus norvegicus, UniProt P35439+Q00959, I519A); conditions: 100 μM glutamate, 0 μM TCN-201
[2] = biological target: GluN1 F754A co-expressed with GluN2A (Rattus norvegicus, UniProt P35439+Q00959, F754A); conditions: 100 μM glutamate, 0 μM TCN-201
[3] = biological target: GluN1 R755A co-expressed with GluN2A (Rattus norvegicus, UniProt P35439+Q00959, R755A)

The chains behind the UniProt entries cited, without tags or fusion partners. Residues count along the entry.
UniProt Q00959, 23-1464: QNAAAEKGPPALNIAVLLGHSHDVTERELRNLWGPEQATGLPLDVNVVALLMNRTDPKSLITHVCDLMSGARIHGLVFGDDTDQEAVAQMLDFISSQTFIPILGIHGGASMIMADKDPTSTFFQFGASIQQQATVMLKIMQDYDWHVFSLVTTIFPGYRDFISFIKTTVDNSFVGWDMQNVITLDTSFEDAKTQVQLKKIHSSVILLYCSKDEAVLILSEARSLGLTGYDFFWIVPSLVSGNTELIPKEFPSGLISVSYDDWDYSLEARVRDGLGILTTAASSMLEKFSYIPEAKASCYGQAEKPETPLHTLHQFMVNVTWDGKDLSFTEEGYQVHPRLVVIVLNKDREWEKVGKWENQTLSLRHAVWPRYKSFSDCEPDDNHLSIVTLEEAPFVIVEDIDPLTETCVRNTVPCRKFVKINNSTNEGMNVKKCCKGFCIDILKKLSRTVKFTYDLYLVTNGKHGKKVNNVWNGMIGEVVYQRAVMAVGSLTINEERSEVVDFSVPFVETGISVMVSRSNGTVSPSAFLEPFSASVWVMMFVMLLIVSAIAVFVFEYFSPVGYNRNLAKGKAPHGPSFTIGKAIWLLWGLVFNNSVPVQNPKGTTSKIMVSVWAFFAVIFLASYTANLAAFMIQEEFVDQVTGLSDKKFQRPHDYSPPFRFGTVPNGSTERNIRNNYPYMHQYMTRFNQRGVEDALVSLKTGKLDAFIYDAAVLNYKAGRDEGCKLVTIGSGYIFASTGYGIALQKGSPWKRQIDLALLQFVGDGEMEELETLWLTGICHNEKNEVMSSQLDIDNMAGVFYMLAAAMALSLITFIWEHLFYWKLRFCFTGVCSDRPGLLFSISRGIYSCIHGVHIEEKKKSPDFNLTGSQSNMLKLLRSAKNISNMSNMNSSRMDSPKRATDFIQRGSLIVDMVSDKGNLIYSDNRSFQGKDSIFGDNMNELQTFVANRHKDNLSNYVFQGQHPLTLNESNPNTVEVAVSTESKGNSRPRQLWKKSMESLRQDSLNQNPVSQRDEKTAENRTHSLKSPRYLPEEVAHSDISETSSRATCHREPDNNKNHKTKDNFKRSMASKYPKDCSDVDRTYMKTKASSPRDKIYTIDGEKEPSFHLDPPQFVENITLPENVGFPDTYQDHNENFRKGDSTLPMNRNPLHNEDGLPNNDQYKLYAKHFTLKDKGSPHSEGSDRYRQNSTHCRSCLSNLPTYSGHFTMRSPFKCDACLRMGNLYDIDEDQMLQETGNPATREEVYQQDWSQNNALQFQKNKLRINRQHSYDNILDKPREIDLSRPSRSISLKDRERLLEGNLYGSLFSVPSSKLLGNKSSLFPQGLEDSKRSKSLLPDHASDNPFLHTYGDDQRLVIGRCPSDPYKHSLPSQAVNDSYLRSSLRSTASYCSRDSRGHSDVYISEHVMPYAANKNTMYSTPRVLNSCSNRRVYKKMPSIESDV
UniProt Q00960, 27-1482: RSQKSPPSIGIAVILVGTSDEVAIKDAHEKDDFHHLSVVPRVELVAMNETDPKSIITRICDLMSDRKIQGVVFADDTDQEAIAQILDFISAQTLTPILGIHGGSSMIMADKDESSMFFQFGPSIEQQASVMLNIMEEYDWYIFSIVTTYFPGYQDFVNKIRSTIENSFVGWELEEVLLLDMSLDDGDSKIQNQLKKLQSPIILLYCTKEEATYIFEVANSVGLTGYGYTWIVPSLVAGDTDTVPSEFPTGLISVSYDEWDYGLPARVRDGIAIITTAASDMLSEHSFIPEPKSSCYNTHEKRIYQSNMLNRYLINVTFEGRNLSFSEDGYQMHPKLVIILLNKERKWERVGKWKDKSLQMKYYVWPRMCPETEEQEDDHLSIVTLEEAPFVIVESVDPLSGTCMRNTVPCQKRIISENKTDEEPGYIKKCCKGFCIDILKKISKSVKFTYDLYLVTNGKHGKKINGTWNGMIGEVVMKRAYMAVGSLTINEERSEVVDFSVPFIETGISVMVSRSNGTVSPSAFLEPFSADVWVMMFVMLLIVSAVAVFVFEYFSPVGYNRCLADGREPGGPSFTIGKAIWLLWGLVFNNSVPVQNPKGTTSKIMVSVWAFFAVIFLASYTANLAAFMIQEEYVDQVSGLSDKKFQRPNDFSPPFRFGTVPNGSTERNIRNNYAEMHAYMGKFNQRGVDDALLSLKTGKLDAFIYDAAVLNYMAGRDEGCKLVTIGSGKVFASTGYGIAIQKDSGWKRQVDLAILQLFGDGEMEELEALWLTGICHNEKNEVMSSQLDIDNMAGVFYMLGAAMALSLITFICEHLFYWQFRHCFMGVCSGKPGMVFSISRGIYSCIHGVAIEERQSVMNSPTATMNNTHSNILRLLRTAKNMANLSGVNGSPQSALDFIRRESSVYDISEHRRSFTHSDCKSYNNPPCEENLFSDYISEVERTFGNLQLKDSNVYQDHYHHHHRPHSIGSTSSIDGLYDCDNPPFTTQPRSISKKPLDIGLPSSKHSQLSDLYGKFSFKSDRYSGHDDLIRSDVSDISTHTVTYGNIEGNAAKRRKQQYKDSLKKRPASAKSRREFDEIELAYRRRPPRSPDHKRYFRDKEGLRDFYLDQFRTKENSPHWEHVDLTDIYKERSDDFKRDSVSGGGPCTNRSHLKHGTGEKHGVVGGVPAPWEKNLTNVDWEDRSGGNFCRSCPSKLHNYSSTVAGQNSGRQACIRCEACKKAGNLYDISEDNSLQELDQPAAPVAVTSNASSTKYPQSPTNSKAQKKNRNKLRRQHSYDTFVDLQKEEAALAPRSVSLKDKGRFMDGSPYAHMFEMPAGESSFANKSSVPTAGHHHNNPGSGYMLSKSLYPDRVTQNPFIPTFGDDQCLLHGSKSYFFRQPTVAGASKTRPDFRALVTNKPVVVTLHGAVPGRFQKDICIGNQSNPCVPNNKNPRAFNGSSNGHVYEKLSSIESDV
UniProt Q00960, 27-1482 F784V: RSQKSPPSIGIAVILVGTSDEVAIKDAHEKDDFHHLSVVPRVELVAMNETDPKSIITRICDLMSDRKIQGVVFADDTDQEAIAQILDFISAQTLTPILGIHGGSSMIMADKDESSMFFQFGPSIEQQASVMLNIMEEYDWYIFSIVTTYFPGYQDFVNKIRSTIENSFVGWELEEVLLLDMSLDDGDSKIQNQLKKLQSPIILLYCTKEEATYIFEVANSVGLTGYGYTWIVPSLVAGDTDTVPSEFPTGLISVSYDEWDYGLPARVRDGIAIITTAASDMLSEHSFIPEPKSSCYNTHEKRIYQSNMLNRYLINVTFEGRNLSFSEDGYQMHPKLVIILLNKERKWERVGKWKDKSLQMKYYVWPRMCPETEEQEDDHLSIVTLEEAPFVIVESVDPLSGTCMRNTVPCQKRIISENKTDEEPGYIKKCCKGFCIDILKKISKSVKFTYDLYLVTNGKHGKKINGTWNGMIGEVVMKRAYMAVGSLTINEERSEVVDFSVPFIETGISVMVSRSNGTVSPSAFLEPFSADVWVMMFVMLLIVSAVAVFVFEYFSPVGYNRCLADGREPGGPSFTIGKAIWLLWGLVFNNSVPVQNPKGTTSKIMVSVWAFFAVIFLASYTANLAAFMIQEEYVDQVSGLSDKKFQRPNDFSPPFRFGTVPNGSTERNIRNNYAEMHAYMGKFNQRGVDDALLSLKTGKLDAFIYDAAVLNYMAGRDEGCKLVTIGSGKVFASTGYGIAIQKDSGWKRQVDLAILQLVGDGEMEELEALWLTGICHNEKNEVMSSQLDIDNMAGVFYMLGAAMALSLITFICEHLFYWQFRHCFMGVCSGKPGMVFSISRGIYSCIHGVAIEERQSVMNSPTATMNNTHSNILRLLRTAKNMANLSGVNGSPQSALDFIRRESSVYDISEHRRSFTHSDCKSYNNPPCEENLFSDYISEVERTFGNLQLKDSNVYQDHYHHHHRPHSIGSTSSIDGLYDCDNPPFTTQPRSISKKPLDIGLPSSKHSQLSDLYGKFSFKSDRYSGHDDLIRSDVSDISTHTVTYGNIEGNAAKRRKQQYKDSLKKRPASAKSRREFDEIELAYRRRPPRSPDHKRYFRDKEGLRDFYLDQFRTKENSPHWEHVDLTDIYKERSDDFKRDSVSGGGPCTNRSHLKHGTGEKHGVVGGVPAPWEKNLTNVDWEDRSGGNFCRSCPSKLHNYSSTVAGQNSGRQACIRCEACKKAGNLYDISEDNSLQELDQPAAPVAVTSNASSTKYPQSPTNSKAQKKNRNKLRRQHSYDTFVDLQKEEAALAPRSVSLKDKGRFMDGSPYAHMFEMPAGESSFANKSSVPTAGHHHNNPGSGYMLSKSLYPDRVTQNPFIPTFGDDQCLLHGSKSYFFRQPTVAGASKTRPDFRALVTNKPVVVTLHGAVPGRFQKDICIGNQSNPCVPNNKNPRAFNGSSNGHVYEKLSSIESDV
UniProt Q00960, 27-1482 L783F/F784V: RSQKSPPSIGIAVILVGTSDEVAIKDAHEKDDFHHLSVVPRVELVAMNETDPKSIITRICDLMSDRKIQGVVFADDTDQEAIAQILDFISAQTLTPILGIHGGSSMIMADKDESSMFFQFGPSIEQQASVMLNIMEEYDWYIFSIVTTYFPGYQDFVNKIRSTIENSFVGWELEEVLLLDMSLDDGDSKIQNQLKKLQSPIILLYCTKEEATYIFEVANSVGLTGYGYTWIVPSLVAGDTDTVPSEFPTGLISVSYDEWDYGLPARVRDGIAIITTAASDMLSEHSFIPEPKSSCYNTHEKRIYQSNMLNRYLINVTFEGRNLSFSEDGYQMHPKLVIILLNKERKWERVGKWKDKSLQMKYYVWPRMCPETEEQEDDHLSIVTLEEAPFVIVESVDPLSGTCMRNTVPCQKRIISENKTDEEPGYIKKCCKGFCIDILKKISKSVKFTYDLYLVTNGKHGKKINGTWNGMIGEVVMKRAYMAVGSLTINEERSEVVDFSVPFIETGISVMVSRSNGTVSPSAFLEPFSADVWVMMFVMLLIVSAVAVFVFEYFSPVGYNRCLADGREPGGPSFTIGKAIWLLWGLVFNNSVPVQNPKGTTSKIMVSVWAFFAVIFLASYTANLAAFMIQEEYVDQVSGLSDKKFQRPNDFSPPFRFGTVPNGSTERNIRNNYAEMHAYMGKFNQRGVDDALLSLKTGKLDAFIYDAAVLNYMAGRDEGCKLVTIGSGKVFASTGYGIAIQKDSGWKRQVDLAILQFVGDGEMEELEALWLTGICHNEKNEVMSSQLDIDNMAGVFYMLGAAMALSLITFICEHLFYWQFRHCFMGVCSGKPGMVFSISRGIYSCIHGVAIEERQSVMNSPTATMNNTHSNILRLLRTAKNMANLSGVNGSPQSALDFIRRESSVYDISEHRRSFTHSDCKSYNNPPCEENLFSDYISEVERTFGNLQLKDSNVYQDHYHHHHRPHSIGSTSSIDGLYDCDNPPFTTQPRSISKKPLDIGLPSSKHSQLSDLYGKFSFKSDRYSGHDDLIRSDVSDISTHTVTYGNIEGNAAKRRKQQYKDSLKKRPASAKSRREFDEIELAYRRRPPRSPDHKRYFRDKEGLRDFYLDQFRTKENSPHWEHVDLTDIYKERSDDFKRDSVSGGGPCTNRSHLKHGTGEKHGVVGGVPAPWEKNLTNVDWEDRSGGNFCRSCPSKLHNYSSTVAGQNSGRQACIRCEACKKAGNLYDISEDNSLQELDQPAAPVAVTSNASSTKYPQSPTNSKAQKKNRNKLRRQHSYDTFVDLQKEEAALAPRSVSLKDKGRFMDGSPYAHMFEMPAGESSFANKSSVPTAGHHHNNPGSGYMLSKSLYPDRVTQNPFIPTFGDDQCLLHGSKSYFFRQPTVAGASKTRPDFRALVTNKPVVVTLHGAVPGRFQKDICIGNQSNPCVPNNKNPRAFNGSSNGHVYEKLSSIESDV

NCC(=O)O [Glycine, glycine]
Glycine activity nH (GluN1/GluN2A; 0 μM TCN-201): 1.4 | Glycine activity nH (GluN1/GluN2A; 10 μM TCN-201): 0.9 | Increase of glycine EC50 by TCN-201 (GluN1/GluN2A; absence vs 10 μM TCN-201): 100 fold | Glycine activity nH (GluN1/GluN2B; 0 μM TCN-201): 1.2 | Glycine activity nH (GluN1/GluN2B; 10 μM TCN-201): 1.1 | Glycine activity nH (GluN1/GluN2B F784V; 0 μM TCN-201): 1.2 | Glycine activity nH (GluN1/GluN2B F784V; 10 μM TCN-201): 1.5 | Glycine activity nH (GluN1/GluN2B L783F+F784V; 0 μM TCN-201): 1.2 | Glycine activity nH (GluN1/GluN2B L783F+F784V; 10 μM TCN-201): 1.5 | Glycine activity nH (GluN1/GluN2A V783L; 0 μM TCN-201): 1.4 | Glycine activity nH (GluN1/GluN2A V783L; 10 μM TCN-201): 1.3 | Glycine activity nH (GluN1/GluN2A G786D; 0 μM TCN-201): 1.5 | Glycine activity nH (GluN1/GluN2A G786D; 10 μM TCN-201): 1.1 | Glycine activity nH (GluN1/GluN2A E790M): 1.4 | Glycine activity nH (GluN1/GluN2A M788I): 1.5 | Glycine activity nH (GluN1/GluN2A T793R): 1.5 | Increase in glycine EC50 compared to wild type GluN2A (GluN1/GluN2A V783A): 2.2 fold | Glycine activity nH (GluN1/GluN2A V783A; 100 μM glutamate, 0 μM TCN-201): 1.0 | Reduction in glycine EC50 compared to wild type GluN2A (GluN1/GluN2A V783F): 2.2 fold | Glycine activity nH (GluN1/GluN2A V783F; 100 μM glutamate, 0 μM TCN-201): 1.3 | Glycine activity nH (GluN1/GluN2A V783W): 1.4 | Glycine activity nH (GluN1/GluN2A V783S): 1.3 | Glycine activity nH (GluN1/GluN2A V783T): 1.2 | Glycine activity nH (GluN1/GluN2A V783H): 1.4 | Glycine activity nH (GluN1/GluN2A V783D): 1.3 | Glycine activity nH (GluN1/GluN2A P527A): 1.2 | Glycine activity nH (GluN1/GluN2A L777A): 1.3 | Glycine activity nH (GluN1/GluN2A L779A): 1.3 | Glycine activity nH (GluN1/GluN2A L780A): 1.1 | Glycine activity nH (GluN1/GluN2A Q781A): 1.1 | Glycine activity nH (GluN1/GluN2A G786A): 1.0 | Glycine activity nH (GluN1/GluN2A M788A): 1.3 | Glycine activity nH (GluN1/GluN2A E789A): 1.3 | Glycine activity nH [1]: 1.3 | Glycine activity nH [2]: 1.6 | Increase in glycine EC50 compared to wild type [3]: 4.0 fold | Glycine activity nH ([3]; 100 μM glutamate, 0 μM TCN-201): 1.1
